The IC50 is the point on the concentration scale where inhibition reaches its midpoint.

Amino acid sequences for entries named in this document (tags omitted). A change or cut given only in a name is not applied to a line headed by its entry.
UniProt O00238: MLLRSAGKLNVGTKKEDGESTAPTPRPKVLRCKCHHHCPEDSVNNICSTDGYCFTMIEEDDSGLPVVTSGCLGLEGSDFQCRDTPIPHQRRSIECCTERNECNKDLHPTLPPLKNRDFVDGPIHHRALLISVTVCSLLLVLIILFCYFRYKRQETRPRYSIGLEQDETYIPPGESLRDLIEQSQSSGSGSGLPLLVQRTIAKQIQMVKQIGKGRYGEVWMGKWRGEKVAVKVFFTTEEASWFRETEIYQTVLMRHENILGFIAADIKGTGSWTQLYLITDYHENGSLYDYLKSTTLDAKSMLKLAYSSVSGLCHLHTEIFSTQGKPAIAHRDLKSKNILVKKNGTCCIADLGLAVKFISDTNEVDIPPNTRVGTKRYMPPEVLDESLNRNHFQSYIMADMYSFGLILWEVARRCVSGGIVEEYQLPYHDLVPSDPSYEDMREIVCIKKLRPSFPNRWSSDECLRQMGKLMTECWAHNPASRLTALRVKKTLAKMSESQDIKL

Consider 1 compound from ChEMBL document CHEMBL2384981, “Synthesis and structure-activity relationships of a novel and selective bone morphogenetic protein receptor (BMP) inhibitor derived from the pyrazolo[1.5-a]pyrimidine scaffold of dorsomorphin: the discovery of ML347 as an ALK2 versus ALK3 selective MLPCN probe” (Bioorg Med Chem Lett, 2013).

For the experiment, the target named is Bone morphogenetic protein receptor type-1B (Homo sapiens, UniProt O00238). Briefly: Inhibition of ALK6 (unknown origin). A digest of the protocol: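 Radiometric in vitro kinase assay on human kinases with 10 μM (33P)γATP.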

Turning to `c1cc(-c2cnn3cc(-c4ccc(OCCN5CCCCC5)cc4)cnc23)ccn1` [DORSOMORPHIN], the IC50 turned out to be 235 nM.
